Results as given in patent US20230042936A1, “PYRIDO[2,3-d]PYRIMIDIN-7(8H)-ONES AS CDK INHIBITORS” (PROSENESTAR LLC, priority 2020, published 2023).

Target: T1, DYRK2 (Homo sapiens, UniProt Q92630)
T1 sequence (Q92630 1-601): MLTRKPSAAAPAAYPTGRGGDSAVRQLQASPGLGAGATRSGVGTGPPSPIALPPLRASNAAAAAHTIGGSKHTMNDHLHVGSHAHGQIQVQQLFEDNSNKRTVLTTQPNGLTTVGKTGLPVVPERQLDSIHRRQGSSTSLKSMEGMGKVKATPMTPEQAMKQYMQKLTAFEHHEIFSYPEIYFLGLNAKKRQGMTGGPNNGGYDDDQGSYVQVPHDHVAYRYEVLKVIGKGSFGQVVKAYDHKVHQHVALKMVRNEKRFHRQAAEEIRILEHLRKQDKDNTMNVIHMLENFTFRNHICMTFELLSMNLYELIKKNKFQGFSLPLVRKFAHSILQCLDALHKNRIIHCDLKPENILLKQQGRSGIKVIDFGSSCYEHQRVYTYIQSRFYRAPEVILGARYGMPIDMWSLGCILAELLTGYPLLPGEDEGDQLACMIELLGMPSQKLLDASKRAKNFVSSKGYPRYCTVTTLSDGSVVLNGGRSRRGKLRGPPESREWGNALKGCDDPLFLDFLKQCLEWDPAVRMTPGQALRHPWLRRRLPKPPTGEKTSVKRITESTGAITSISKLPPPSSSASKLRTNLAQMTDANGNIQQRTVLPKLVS
Experiment: Kinase profiling
Format: biochemical

CCN1CCN(Cc2ccc(Nc3ncc(F)c(-c4cc(F)c5nc(C)n(C(C)C)c5c4)n3)nc2)CC1 [Abemaciclib, reference compound]
pIC50: < 4.30

pIC50: −log10 of the molar value.
